# Paper PMC11482831 (bioRxiv, 2024)
# Chains of the proteins cited; added tags and fusions are not shown. Residues count along the entry.
# UniProt O60896, whole entry, looked up, tested part not stated: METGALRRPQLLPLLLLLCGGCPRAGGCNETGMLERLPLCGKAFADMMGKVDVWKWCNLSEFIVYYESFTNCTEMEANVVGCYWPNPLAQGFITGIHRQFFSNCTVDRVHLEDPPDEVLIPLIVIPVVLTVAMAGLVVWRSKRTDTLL
# UniProt O60895, 55-175: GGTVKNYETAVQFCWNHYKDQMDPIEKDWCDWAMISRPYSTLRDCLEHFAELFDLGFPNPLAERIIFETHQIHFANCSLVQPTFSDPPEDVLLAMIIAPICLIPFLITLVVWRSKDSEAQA
# UniProt O60894, 24-148: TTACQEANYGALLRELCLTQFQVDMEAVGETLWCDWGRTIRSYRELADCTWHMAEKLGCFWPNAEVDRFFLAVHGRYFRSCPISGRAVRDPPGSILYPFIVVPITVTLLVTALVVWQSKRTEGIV
# What was measured:
# [1] = target: AMY3R on cells (HiBiT-CTR.25–474 : mCitrine-RAMP3.25–148) (human) (UniProt O60896); assay: FRET or BRET
# [2] = target: AMY3R heterodimer (mCitrine-MBP-CTR.25–474 : mCitrine-MBP-RAMP3.25–148) (human) (UniProt O60896); assay: native gel or EMSA
# CTR:R2 (AMY2R) = CTR:R2 (AMY2R) (Homo sapiens, UniProt O60895+P30988); conditions: 50 μM SUMO-miniGs, agonist titration
# CTR:R1 (AMY1R) = CTR:R1 (AMY1R) (Homo sapiens, UniProt O60894+P30988); assay: Native PAGE agonist titration with excess SUMO-miniGs, AMY1R; conditions: 50 μM SUMO-miniGs
# CTR = target: T1, CTR (Homo sapiens, UniProt P30988); conditions: 50 μM SUMO-miniGs, agonist titration
# T1 sequence (P30988 25-474): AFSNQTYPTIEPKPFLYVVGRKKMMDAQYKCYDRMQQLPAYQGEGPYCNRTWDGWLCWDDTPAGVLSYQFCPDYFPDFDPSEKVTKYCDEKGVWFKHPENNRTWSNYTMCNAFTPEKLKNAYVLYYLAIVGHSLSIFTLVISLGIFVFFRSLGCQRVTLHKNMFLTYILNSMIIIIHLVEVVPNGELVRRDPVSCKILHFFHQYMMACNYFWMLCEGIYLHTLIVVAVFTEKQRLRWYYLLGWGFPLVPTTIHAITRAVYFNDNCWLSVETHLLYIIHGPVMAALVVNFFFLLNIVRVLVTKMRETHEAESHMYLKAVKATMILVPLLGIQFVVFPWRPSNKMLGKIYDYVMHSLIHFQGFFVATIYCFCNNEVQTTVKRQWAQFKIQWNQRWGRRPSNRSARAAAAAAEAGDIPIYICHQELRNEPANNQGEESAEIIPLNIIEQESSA
EC50 [1],pEC50 of the change of the free RAMP3 band (agonist-promoted AMY3R dissociation) [2],"Relative potency, quaternary complex formation (CTR:R2 (AMY2R))","Relative potency, quaternary complex formation (CTR:R1 (AMY1R))",Substance,"Relative potency, ternary complex formation (CTR)"
22 nM,7.21,,,salmon calcitonin (peptide),
,,more potent than αCGRP,more potent than αCGRP and hCT,salmon calcitonin [sCT],more potent than hCT and the other ligands
